Antibody variant affinities, Ab-14 light chain, assay B

Target: peptide PDVDLGDISGINAS, taken from heptad repeat 2 (HR2) of SARS-CoV-2 spike.

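The starting antibody came from a phage panning campaign against this peptide. These sequences belong to a second round, designed from the earlier measurements on random variants of the parent. Several design methods are mixed in this list. The assay is AlphaSeq: two haploid yeast populations carry antibody and antigen on their surface. The frequency of each diploid, read from paired DNA barcodes, reflects how well the two displayed proteins bind. Read counts were normalised to the haploid input and turned into Kd by a linear fit to BCL2-family pairs of known affinity, for each replicate. Each pool was mated in six replicate cultures.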

The variants keep the heavy chain, the linker and the frameworks of Ab-14 (scFv order VH, three GGGGS repeats, VL).
VH: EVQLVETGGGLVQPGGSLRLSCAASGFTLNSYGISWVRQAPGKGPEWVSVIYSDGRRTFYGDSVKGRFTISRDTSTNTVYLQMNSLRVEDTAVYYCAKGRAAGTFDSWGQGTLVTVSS
VL: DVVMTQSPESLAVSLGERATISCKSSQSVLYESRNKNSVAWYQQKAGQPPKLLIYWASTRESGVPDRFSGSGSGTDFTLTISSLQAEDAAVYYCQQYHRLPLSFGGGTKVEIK

The parent's light chain CDRs are KSSQSVLYESRNKNSVA, WASTRES, QQYHRLPLS; each variant's own CDRs replace them letter for letter. Variants here have more than six changes. The Kd shown is the geometric mean over detected replicates; a lower Kd is a better binder. The authors averaged sequences with at least three values out of six and counted those with two or fewer as poor binders. Values of this round are not directly comparable with the first-round values of the same sequences. Background: pairings of all light chain designs with three empty control strains gave a value in 4% of cases (median 430 nM, 5th percentile 38 nM). Values in that range, when seen in few replicates, are hard to tell from nonspecific mating. The control count says in how many pairings with the empty strains this scFv gave a signal. The parent sequence was in this pool as ten entries: three were never detected, three once, and four in most replicates, with averages from 2.2 nM to 240 nM.

- KITDKFLGEGNGRQNIA | HAMVAYE | QQYQQLPLA: 4.2 nM (6 of 6 replicates; controls 1 of 18)
- MVSQLMLWGMHVKNSIA | EAQTRLN | QQYDRLPLF: 1.4 µM (1 of 6 replicates; controls 0 of 18)
- KIGHGLTTESRNRNSVA | QTETRVE | QHYHRLPLS: 240 nM (4 of 6 replicates; controls 0 of 18)
- QLEFRDVQGGANWHAIA | EASQLGQ | QQYFHLPLG: 29 nM (6 of 6 replicates; controls 0 of 18)
- MISQLFMYGSRNYNSVA | QATTRES | QQYDRLPLI: 14 nM (6 of 6 replicates; controls 0 of 18)
- MLRFDITDGQKNWNAIA | ETSELGA | QQYMHLPLG: 22 nM (2 of 6 replicates; controls 0 of 18)
- KVPGSHDYESRNKNSVA | HASTRCS | QDYHRLPLS: 16 nM (6 of 6 replicates; controls 0 of 18)
- RLNCSQYDKDEHGKAIA | ADQTRMS | QQYFRLPLS: 17 nM (6 of 6 replicates; controls 0 of 18)
- MIYAATMELGRAKNSIA | DNVTRYD | QQYERLPLS: 790 nM (3 of 6 replicates; controls 0 of 18)
- QLTWRAFNGDSVMNNVA | DNVHAQY | QQYSRLPFT: 4.0 nM (6 of 6 replicates; controls 0 of 18)
- KLSQTHGMEMVNRNSVA | ELVTRLN | QQYNRLPLS: 21 nM (6 of 6 replicates; controls 0 of 18)
- ILYDSVGTLSRNKNSVA | DNSTRES | QQYDRLPLS: 45 nM (5 of 6 replicates; controls 1 of 18)
- KVSYFNEQVTKHGSNVA | DNETRER | QQYFRLPLS: 3.0 nM (6 of 6 replicates; controls 3 of 18)
- KLRTQVGHQMDHKNSIA | EVDMVAQ | QQYMHLPLI: 8.3 nM (6 of 6 replicates; controls 0 of 18)
- KFVQSHDYESRNKNNVA | QASQREQ | QQYHRLPLS: 2.5 nM (6 of 6 replicates; controls 0 of 18)
- MISQLWNMGQFAINSVA | QASERSE | QQYDRLPLQ: 81 nM (6 of 6 replicates; controls 1 of 18)
- KLVESELYESRQSNSVA | NASYREE | QQYHRLPLS: 1.6 nM (6 of 6 replicates; controls 1 of 18)
- TLTQVQGMESHNNDSVA | DLSTRGS | QQYHRLPLS: 42 nM (6 of 6 replicates; controls 0 of 18)
- KLSMNCTGQLNQGNSVA | GATEACI | QQFARLPLS: 53 nM (6 of 6 replicates; controls 2 of 18)
- KFQQSQLYESRQKNSVA | NASKRCS | QQYHRLPLS: 6.6 nM (6 of 6 replicates; controls 0 of 18)
- NISQMIFMETKNVNNVA | QTSTRES | QDYHRLPLS: 2.2 nM (6 of 6 replicates; controls 1 of 18)
- KLSMFHNLESINKSNVA | EMVTREN | QQYDRLPLS: 170 nM (5 of 6 replicates; controls 0 of 18)
- KLSMMVDYHSATHSSVA | QTSTREE | QQYHRLPLS: 1.5 nM (6 of 6 replicates; controls 1 of 18)
- MIGGVTNGISSNKNSVA | EQSTRES | QQYNRLPLS: 6.6 nM (6 of 6 replicates; controls 0 of 18)
- VSDAFNFSDGQKWNNVA | QTSVRLQ | QYYQRLPLM: 13 nM (6 of 6 replicates; controls 0 of 18)
- KLYSVTGTEKIQGNNVA | EMETRER | QQYNRLPLS: 3.0 nM (6 of 6 replicates; controls 0 of 18)
- HLMSLNLHYTGTLNSVA | EAEERQE | QHYARLPLM: 17 nM (6 of 6 replicates; controls 4 of 18)
- MVGQGLMGESRAKNSIA | QASTRFD | QQYHRLPLI: 5.2 nM (6 of 6 replicates; controls 0 of 18)
- KLMQSSGYESRNFNSVA | QASTRSS | QQYHRLPLS: 3.5 nM (6 of 6 replicates; controls 1 of 18)
- KCQQSQDYESRNKNAVA | NASQRLD | QQYHRLPLS: 2.0 nM (6 of 6 replicates; controls 2 of 18)

The measurements come from Li et al. 2023 (doi:10.1038/s41467-023-39022-2) through the FLAb antibody collection.